# Assay results published in PubChem BioAssay AID1117267 (The Scripps Research Institute Molecular Screening Center, 2014).
# This is a selection; strong and weak results do not stand in their true shares. Activity calls are given as the source filed them.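 Rule for the calls: active = activation above the mean of all tested compounds plus 3 SD (cut at about 9.5% in these data); inactive = the rest.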
# Assay: compounds raising TTR promoter-driven luciferase – cell-based, luminescence, SH-SY5Y, TTR promoter Gaussia luciferase, primary screen (AID 1117267);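 note: cells exposed to compounds for one day before reading; 0% = median of all test compound wells on the plate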
# Conditions: at 16.7 µM, stronger effect = higher value, 100% = recombinant luciferase protein wells
row,SMILES,activation
1,CCCCn1nnnc1C(c1ccccc1)N1CCC(n2c(=O)[nH]c3ccccc32)CC1 (stereo not given),inactive: -1.25%
2,O=c1[nH]c2ccccc2n1C1CCN(C(c2ccnc3ccccc23)c2nnnn2C2CCCC2)CC1 (stereo not given),inactive: -1.66%
3,N/C(=N\O)c1c(N)no[n+]1[O-],inactive: 1.42%
4,COc1cccc(C(c2nnnn2C(C)(C)C)N2CCC(n3c(=O)[nH]c4ccccc43)CC2)c1OC (stereo not given),inactive: -2.32%
5,CCCCn1nnnc1C(c1cccc(OC)c1OC)N1CCC(n2c(=O)[nH]c3ccccc32)CC1 (stereo not given),inactive: 1.81%
6,O=c1[nH]c2ccccc2n1C1CCN(C(c2cccs2)c2nnnn2C2CCCC2)CC1 (stereo not given),inactive: 1.15%
7,O=c1[nH]c2ccccc2n1C1CCN(C(c2ccccc2)c2nnnn2C2CCCC2)CC1 (stereo not given),inactive: -1.37%
8,CC(C)(C)n1nnnc1C(c1cccc2ccccc12)N1CCC(n2c(=O)[nH]c3ccccc32)CC1 (stereo not given),inactive: -2.7%
9,CCC(c1nnnn1C1CCCCC1)N1CCC(n2c(=O)[nH]c3ccccc32)CC1 (stereo not given),inactive: -0.75%
10,COc1ccc(C(c2nnnn2C2CCCCC2)N2CCC(n3c(=O)[nH]c4ccccc43)CC2)cc1 (stereo not given),inactive: -0.59%
11,O=C(NCC1(N2CCCCC2)CCCCC1)c1ccco1,inactive: 1.9%
12,CC(C)(C)OC(=O)N1CCC(Nc2ccccc2)CC1,inactive: -1.47%
13,COc1cc(OC)cc(C(=O)NCC2(N3CCOCC3)CCCCC2)c1,inactive: 0.76%
14,COc1cccc(C(c2nnnn2C2CCCC2)N2CCC(n3c(=O)[nH]c4ccccc43)CC2)c1OC (stereo not given),inactive: -3.55%
15,CSc1ccccc1C(=O)NCC1(N2CCCCC2)CCCCC1,inactive: 2.76%
16,O=c1[nH]c2ccccc2n1C1CCN(C(c2ccccc2OC(F)(F)F)c2nnnn2C2CCCCC2)CC1 (stereo not given),inactive: -2.48%
17,CCOC(=O)N1CCC(Nc2ccc(OC)cc2)CC1,inactive: 1.84%
18,COc1ccc(Cl)cc1C(=O)NCC1(N2CCOCC2)CCCCC1,inactive: -0.03%
19,N#CC1(Nc2ccccc2)CCN(Cc2ccccc2)CC1,inactive: 9.43%
20,CCOc1ccc(C)cc1CN(CCCl)CCCl,inactive: -0.06%
21,CC(C)(C)n1nnnc1C(c1ccccc1)N1CCC(n2c(=O)[nH]c3ccccc32)CC1 (stereo not given),inactive: 1.52%
22,CCOC(=O)N1CCC(Nc2ccc(F)cc2)CC1,inactive: 0.39%
23,COc1ccc(NC2CCN(CCc3ccccc3)CC2)c(OC)c1,inactive: -0.88%
24,CCCCn1nnnc1C(c1cc2ccccc2o1)N1CCC(n2c(=O)[nH]c3ccccc32)CC1 (stereo not given),inactive: -3.79%
25,O=C(NCC1(N2CCCCC2)CCCCC1)c1ccc(OC(F)F)cc1,inactive: -0.99%
26,O=C(NCC1(N2CCOCC2)CCCCC1)c1cc(=O)[nH]c2ccccc12,inactive: 6.47%
27,COC(=O)C1(Nc2ccccc2)CCN(Cc2ccccc2)CC1,inactive: 1.95%
28,CCCCn1nnnc1C(c1ccnc2ccccc12)N1CCC(n2c(=O)[nH]c3ccccc32)CC1 (stereo not given),inactive: -0.24%
29,CCCOc1ccc(C(=O)NCC2(N(C)C)CCCCC2)cc1OC,inactive: -1.01%
30,COc1ccc(C(c2nnnn2C2CCCC2)N2CCC(n3c(=O)[nH]c4ccccc43)CC2)cc1 (stereo not given),inactive: -1.84%
